Molecules are shown by their SMILES.

The species entered for the test is Homo sapiens. The test is described as follows: Selectivity ratio of IC50 for human BACE2 to IC50 for human BACE1.
Consider `CC#CCOc1cnc(C(=O)Nc2ccc(F)c([C@@]3(C)N=C(N)OCC3(F)F)c2)cn1`, for which the Ratio IC50 worked out at 17.

On to `C[C@]1(c2cc(NC(=O)c3nn(C(F)F)cc3Cl)ccc2F)N=C(N)OCC1(F)F`, for which the Ratio IC50 was found to be 0.6.

Turning to `COc1cnc(C(=O)Nc2ccc(F)c([C@@]3(C)N=C(N)OCC3(F)F)c2)cn1`, the Ratio IC50 amounted to 4.

Values taken from ChEMBL document CHEMBL2346595, “β-Secretase (BACE1) inhibitors with high in vivo efficacy suitable for clinical evaluation in Alzheimer's disease” (J Med Chem, 2013).
